For one series, the system named is Sprague Dawley rats. In words: Sprague Dawley toxicity model. The note with it: single IP injection, approximately 5 times the efficacious dose (1338 µmol/m^2), after 5 days.
A further series concerns Zebrafish larvae. The conditions noted are these: formulation pH 6.8 and higher, stored 5 days; 50 µM cyanide.

As for “bis-(L-S-methylcysteine)-(S,N)platinum(II) dichloride”, in the series with Sprague Dawley rats, the “BUN, creatinine, and phosphate levels” value is “significant increases”.
Consider “bis-(L-methionine amide (S,N)platinum(II) dichloride”, for which the “efficacy in cyanide challenged zebrafish survival assay” value in the series on Zebrafish larvae is listed as “decreased efficacy”.

The values above are taken from publication PMC10823771, “Investigating the replacement of carboxylates with carboxamides to modulate the safety and efficacy of platinum(II) thioether cyanide scavengers” (2023).
